# ChEMBL document CHEMBL3997822, “Asymmetric total synthesis of tetrahydroprotoberberine derivatives and evaluation of their binding affinities at dopamine receptors” (Bioorg Med Chem Lett, 2017)
# Sequences of proteins named here, by UniProt entry; tags and fusion partners are left off.
# UniProt P14416, whole entry: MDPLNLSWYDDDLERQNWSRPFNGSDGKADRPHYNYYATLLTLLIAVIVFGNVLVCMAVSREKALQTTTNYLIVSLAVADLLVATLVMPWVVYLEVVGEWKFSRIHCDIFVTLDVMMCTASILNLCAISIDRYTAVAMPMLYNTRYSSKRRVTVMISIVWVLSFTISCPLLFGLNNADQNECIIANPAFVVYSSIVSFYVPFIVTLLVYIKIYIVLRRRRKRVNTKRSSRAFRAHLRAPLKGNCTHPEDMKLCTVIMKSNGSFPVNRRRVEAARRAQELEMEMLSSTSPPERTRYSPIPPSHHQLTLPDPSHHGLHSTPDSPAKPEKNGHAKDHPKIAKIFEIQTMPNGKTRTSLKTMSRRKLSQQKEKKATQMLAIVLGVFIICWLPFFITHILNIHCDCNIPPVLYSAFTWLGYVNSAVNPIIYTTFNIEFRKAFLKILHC
# Target: D(2) dopamine receptor (Homo sapiens, UniProt P14416)
# Assay: Displacement of [3H]SCH23390 from human FLAG-tagged dopamine D2 receptor expressed in HEK293 cells after 1 hr
# Type: cell-based
compound,measurement,value
COc1cc2c(cc1O)[C@@H]1Cc3ccc(OC)c(OC)c3CN1CC2,Ki,41.8 nM
